# Test results reported in patent US20210260101A1, “POTENTIATED ANTIBIOTIC COMPOSITIONS AND METHODS OF USE FOR TREATING BACTERIAL INFECTIONS AND BIOFILMS” (priority 2018, published 2021).
# System: primary human renal proximal tubule epithelial cells (hRPTECs)
# Test: In vitro nephrotoxicity assay (LDH release)
substance,measurement,setting,value
colistin,release of LDH,"at 62 μg/mL, hRPTECs",26%
same,nephrotoxicity (LDH assay),at 63 μg/mL,> 20%
